Usually Ki stands for the equilibrium dissociation constant of an inhibitor or competing ligand from its target. A lower Ki goes with higher affinity.

Protein sequences, listed by entry. Tags and fused reporters are not part of them. Residues count along the entry.
UniProt P31424, 21-1203: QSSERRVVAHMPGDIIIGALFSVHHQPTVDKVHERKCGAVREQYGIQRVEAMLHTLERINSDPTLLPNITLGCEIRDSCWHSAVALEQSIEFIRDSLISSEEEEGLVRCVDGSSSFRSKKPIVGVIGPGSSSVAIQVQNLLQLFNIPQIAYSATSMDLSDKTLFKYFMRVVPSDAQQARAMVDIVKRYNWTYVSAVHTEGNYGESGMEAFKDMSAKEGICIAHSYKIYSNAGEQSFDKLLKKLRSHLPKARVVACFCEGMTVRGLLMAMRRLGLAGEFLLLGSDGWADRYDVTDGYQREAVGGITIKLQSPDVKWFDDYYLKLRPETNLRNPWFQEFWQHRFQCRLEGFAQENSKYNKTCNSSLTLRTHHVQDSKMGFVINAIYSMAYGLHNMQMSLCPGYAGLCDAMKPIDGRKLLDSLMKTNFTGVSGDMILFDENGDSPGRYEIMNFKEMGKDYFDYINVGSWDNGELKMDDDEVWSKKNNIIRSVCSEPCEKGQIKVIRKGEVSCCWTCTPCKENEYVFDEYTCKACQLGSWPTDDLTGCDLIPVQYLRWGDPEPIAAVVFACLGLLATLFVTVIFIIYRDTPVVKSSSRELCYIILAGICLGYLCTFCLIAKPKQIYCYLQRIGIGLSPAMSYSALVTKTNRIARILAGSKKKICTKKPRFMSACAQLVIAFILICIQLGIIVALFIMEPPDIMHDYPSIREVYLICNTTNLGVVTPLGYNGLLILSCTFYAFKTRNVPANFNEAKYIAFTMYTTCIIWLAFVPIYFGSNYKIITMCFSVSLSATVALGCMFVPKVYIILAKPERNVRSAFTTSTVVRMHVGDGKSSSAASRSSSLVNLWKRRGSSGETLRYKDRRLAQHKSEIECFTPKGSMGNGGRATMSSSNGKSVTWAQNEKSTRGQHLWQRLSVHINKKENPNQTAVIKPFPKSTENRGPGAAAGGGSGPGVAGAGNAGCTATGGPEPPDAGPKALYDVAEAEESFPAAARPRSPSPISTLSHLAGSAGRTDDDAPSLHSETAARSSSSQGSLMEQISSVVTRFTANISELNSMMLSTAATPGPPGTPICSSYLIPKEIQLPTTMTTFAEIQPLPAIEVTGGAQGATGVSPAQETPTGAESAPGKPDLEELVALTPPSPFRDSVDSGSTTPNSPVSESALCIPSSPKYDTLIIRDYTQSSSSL

Structures are written as SMILES.

In this assay the target is transmembrane allosteric modulatory sites of mGluR5 receptors (Rattus norvegicus, UniProt P31424).

In turn, `Cc1cccc(C#Cc2ccccc2)n1` [MPEP, 2-methyl-6-(phenylethynyl)pyridine] had a Ki of 8.2 nM.

Values taken from EP2090576A1, “6-halo-pyrazolo[1,5-a]pyridines, a process for their preparation and their use as metabotropic glutamate receptor (mGluR) modulators” (Merz Pharma GmbH & Co. KGaA, priority 2008, dated 2009).
